Source: patent publication US20220291237A1 (priority 2021, published 2022)

Columns and labels:
Design in all cases: species or system human
TNFSF10 = tested on: TNFSF10
CXCL1 = tested on: CXCL1
MIG = tested on: MIG

Substance: Silicon dioxide
- EFFECT (TNFSF10): Detrimental
- EFFECT (CXCL1): Beneficial
- EFFECT (MIG): Detrimental
